US8088763B2 (priority 2004, dated 2012)

By UniProt entry, the sequences of proteins in these tests, tags left out. Residues count along the entry.
UniProt Q63380, 1-617 limits assumed: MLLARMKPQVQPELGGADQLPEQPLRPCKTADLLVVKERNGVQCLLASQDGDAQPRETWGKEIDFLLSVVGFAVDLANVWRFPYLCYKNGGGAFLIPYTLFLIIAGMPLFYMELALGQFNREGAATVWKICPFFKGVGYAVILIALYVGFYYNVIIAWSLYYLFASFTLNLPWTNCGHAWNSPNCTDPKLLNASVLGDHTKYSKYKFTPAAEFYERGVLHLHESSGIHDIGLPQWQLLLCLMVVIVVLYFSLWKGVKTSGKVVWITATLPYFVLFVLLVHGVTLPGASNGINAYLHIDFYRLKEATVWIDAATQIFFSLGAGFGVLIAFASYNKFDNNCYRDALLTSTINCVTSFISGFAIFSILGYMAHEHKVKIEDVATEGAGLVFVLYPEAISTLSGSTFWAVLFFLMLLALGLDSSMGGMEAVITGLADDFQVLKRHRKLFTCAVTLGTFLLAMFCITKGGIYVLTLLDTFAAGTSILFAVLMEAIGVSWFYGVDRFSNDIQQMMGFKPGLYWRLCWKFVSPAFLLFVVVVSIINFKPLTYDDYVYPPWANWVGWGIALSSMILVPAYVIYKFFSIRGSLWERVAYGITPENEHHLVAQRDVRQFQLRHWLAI
UniProt P35372, whole entry, looked up: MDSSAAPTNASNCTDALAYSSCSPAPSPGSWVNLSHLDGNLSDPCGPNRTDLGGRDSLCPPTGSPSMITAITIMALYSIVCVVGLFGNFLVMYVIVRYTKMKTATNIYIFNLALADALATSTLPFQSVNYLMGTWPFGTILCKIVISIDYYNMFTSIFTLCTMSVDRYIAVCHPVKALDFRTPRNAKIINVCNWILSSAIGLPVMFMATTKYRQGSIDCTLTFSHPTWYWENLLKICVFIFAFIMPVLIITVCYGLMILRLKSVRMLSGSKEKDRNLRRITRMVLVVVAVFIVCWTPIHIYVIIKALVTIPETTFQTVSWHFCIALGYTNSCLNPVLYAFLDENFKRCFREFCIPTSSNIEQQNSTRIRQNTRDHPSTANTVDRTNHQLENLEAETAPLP
UniProt P31652, whole entry, looked up: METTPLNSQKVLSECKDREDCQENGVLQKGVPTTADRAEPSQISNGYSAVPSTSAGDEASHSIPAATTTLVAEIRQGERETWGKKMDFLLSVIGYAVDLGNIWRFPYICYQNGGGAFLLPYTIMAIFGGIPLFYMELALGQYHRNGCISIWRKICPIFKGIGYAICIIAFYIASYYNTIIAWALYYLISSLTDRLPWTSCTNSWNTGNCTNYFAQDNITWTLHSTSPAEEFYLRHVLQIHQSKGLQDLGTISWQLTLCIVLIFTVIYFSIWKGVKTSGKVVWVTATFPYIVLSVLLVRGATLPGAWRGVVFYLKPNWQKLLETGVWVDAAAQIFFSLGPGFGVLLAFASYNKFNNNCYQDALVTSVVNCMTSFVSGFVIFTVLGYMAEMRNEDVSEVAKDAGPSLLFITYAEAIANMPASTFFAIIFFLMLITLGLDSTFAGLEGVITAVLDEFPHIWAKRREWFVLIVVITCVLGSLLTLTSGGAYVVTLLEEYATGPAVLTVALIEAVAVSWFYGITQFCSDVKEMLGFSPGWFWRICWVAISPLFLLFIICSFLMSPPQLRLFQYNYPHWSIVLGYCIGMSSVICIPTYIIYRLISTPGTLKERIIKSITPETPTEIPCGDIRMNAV

Legend:
[1] = target: NA-uptake (Rattus norvegicus, UniProt Q63380); experiment: Noradrenalin re-uptake in rat brain synaptosomes (P2 fraction, hypothalamus); format: biochemical; conditions: 10 μM test compound
[2] = target: human μ-opiate receptor (Homo sapiens, UniProt P35372); experiment: μ-binding: displacement of [3H]-naloxone, receptor membrane preparation of CHO-K1 cells; conditions: 1 μM test compound; 1 nmol/l [3H]-naloxone
[3] = target: 5HT-uptake (Rattus norvegicus, UniProt P31652); experiment: Serotonin re-uptake in rat brain synaptosomes (P2 fraction, medulla+pons); format: biochemical; conditions: 10 μM test compound

| Compound | NA-uptake [10 μM], % inhibition [1] [%] | μ-binding, [1 μM], % inhibition [2] [%] | 5HT-uptake [10 μM], % inhibition [3] [%] |
| --- | --- | --- | --- |
| CN(C)C1(Cc2cccc(Cl)c2)CCC(NC(=O)CCC(=O)N2CCSCC2)CC1 (stereo not drawn) | 92 | 57 | 94 |
| Cc1cccc(Cl)c1CNC(=O)CCC(=O)NC1CCC(Cc2cccc(Cl)c2)(N(C)C)CC1 (stereo not drawn) | 97 | 64 | 97 |
| Glutaric acid-(4-benzyl-4-dimethylamino- cyclohexyl)-amide[2-(4-fluoro-phenyl)- ethyl]-amide | 94 | 65 | 94 |
| Cc1ccccc1CNC(=O)CCC(=O)NC1CCC(Cc2cccc(Cl)c2)(N(C)C)CC1 (stereo not drawn) | 98 | 56 | 96 |
| Glutaric acid-(4-benzyl-4-dimethylamino- cyclohexyl)-amide[2-(5-bromo-2-methoxy- phenyl)-ethyl]-amide | 109 | 89 | 96 |
| Cc1cccc(CC2(N(C)C)CCC(NC(=O)CCC(=O)NC(C)CCc3ccccc3)CC2)c1 (stereo not drawn) | 96 | 57 | 94 |
| Cc1cccc(CC2(N(C)C)CCC(NC(=O)CCC(=O)NCCc3cccc(F)c3)CC2)c1 (stereo not drawn) | 99 | 56 | 93 |
| Cc1cccc(CC2(N(C)C)CCC(NC(=O)CCC(=O)NC3Cc4ccccc4C3)CC2)c1 (stereo not drawn) | 101 | 54 | 96 |
